For orientation: pEC50 means −log10 of the EC50, conventionally taken in molar units. A lower pEC50 goes with a high EC50.

From paper PMC3815676 (Journal of immunology (Baltimore, Md. : 1950), 2013) come the findings set out here.

What all share (type): cell-based, NOD mouse
For test [1], the system named is CD4 T cell clone BDC-5.2.9. Particulars: 24 h.
Test [2] deals with BDC-5/S3.4 T cell clone. The experiment in a line: Antigen assay: IFN-γ response of T cell clone.
Test [3] relates to BDC-9/S3.5 T cell clone. Description: Antigen assay: IFN-γ response of T cell clone.
The mark [4] stands for this setting: clone (2 × 10^4) with PEC (2.5 × 10^4) and KS20 (1 μg/ml), IFN-γ by ELISA, positive response > 50 ng/ml, representative of two independent experiments.

Structures are written as SMILES. pEC50: −log10 of the molar value.

Turning to `CC(C)C[C@H](NC(=O)[C@H](CCCNC(=N)N)NC(=O)[C@H](CCC(N)=O)NC(=O)[C@@H](NC(=O)[C@H](C)NC(=O)[C@@H]1CSSC[C@H](NC(=O)[C@@H](N)CCCCN)C(=O)N[C@@H](CC(N)=O)C(=O)N[C@@H]([C@@H](C)O)C(=O)N[C@@H](C)C(=O)N[C@@H]([C@@H](C)O)C(=O)N1)[C@@H](C)O)C(=O)N[C@@H](C)C(=O)N[C@@H](CC(N)=O)C(=O)N[C@@H](Cc1ccccc1)C(=O)N[C@@H](CC(C)C)C(=O)N[C@H](C(=O)O)C(C)C` [KV17], in test [1], the pEC50 is 8.00.
On the same count and under the same terms, then `CC(C)C[C@H](NC(=O)[C@H](CCCNC(=N)N)NC(=O)[C@H](CCC(N)=O)NC(=O)[C@@H](NC(=O)[C@H](C)NC(=O)[C@@H]1CSSC[C@H](N)C(=O)N[C@@H](CC(N)=O)C(=O)N[C@@H]([C@@H](C)O)C(=O)N[C@@H](C)C(=O)N[C@@H]([C@@H](C)O)C(=O)N1)[C@@H](C)O)C(=O)N[C@@H](C)C(=O)N[C@@H](CC(N)=O)C(=O)N[C@@H](Cc1ccccc1)C(=O)N[C@@H](CC(C)C)C(=O)N[C@H](C(=O)N[C@@H](CCCNC(=N)N)C(=O)N[C@@H](CO)C(=O)N[C@@H](CO)C(=O)O)C(C)C` [CS19], with 8.30; and `CC(C)C[C@H](NC(=O)[C@H](CCCNC(=N)N)NC(=O)[C@H](CCC(N)=O)NC(=O)[C@@H](NC(=O)[C@H](C)NC(=O)[C@@H]1CSSC[C@H](NC(=O)[C@H](CCCCN)NC(=O)[C@H](CCCNC(=N)N)NC(=O)[C@H](CCCCN)NC(=O)[C@@H](N)CC(=O)O)C(=O)N[C@@H](CC(N)=O)C(=O)N[C@@H]([C@@H](C)O)C(=O)N[C@@H](C)C(=O)N[C@@H]([C@@H](C)O)C(=O)N1)[C@@H](C)O)C(=O)N[C@@H](C)C(=O)N[C@@H](CC(N)=O)C(=O)N[C@@H](Cc1ccccc1)C(=O)N[C@@H](CC(C)C)C(=O)N[C@H](C(=O)N[C@@H](CCCNC(=N)N)C(=O)N[C@@H](CO)C(=O)N[C@@H](CO)C(=O)O)C(C)C` [DS23], with 7.26.
`CC(C)C[C@H](NC(=O)[C@H](CCCNC(=N)N)NC(=O)[C@H](CCC(N)=O)NC(=O)[C@@H](NC(=O)[C@H](C)NC(=O)[C@@H]1CSSC[C@H](NC(=O)[C@@H](N)CCCCN)C(=O)N[C@@H](CC(N)=O)C(=O)N[C@@H]([C@@H](C)O)C(=O)N[C@@H](C)C(=O)N[C@@H]([C@@H](C)O)C(=O)N1)[C@@H](C)O)C(=O)N[C@@H](C)C(=O)N[C@@H](CC(N)=O)C(=O)N[C@@H](Cc1ccccc1)C(=O)N[C@@H](CC(C)C)C(=O)N[C@H](C(=O)N[C@@H](CCCNC(=N)N)C(=O)N[C@@H](CO)C(=O)N[C@@H](CO)C(=O)O)C(C)C` [KS20] had a negative logarithm of the EC50 (pEC50) in test [1] of 9.70. Also, the “IFN-γ response to KS20” value in test [2] (setting [4]) and in test [3] (setting [4]) was “strongly activated” throughout. For the same molecule, the “concentration at which the clone responds to KS20” value in test [2] (data not shown) and in test [3] (data not shown) was “nanomolar concentrations” in each case.
